The values below are quoted from earlier work in patent US20130251678A1, “BID DOSAGE REGIMEN FOR DEB025” (NOVARTIS AG, priority 2010, published 2013).

For the series the following is noted: in vivo; cited from earlier work.

Take “Peg-IFNα2a: pegylated form of interferon alfa 2a with 40 kDa branched PEG, commercially available from Roche”: the “duration of sustained serum concentrations” value is 168 h.
